Patent US20200384001A1, “COMPOSITION FOR PREVENTION OR TREATMENT OF NEUROINFLAMMATORY DISEASE, CONTAINING PROTEIN TYROSINE PHOSPHATASE” (KYUNGPOOK NATIONAL UNIVERSITY INDUSTRY - ACADEMIC …, priority 2015, published 2020)
Where two headings read alike, the source gives them in different places.

Experiments:
BV2 microglia = conditions: BV2, 24 hours after iPTP1B treatment, concentrations used in the test (FIG. 9)
primary microglia = conditions: 24 hours after iPTP1B treatment (FIG. 10)

Measured: cytotoxicity (MTT assay)

(S)-4-(((S)-1-(12-azanyl)-3-(4-(difluoro(phosphono)methyl)phenyl)-1-oxopropan-2-yl)amino)-3-((S)-3-(4-(difluoro(phosphono)methyl)phenyl)-2-pentadecanamidopropanamido)-4-oxobutanoic acid [iPTP1B]
no significant level of cytotoxicity: BV2 microglia | primary microglia | HAPI cells; LPS experiment, 24 hours after iPTP1B treatment (FIG. 11) | HAPI cells; TNFα experiment, 24 hours after iPTP1B treatment (FIG. 12)
